Laboratory results taken from patent US8772480B2, “Inhibitors of PI3 kinase and/or mTOR” (priority 2009, dated 2014).

Target: mammalian target of rapamycin (mTOR) (Homo sapiens (Human), UniProt P42345)
Conditions: read-out: mTOR IC50

Row | SMILES | IC50 [µM]
1 | C=Cc1cnc(Nc2ccc(OC)nc2)c(-c2nc(C)nc3[nH]cnc23)c1 [Example 73, N-(6-methoxypyridin-3-yl)-3-(2-methyl-9H-purin-6-yl)-5-vinylpyridin-2-amine] | > 10
2 | CCc1cnc(Nc2ccc(OC)nc2)c(-c2nc(C)nc3[nH]cnc23)c1 [Example 74, 5-ethyl-N-(6-methoxypyridin-3-yl)-3-(2-methyl-9H-purin-6-yl)pyridin-2-amine] | > 10
3 | COc1ccc(Nc2ncc(CCO)cc2-c2nc(C)nc3[nH]cnc23)cn1 [Example 75, 2-(6-(6-methoxypyridin-3-ylamino)-5-(2-methyl-9H-purin-6-yl)pyridin-3-yl)ethanol] | 0.248
4 | COc1ccc(Nc2ncc(CO)cc2-c2nc(C)nc3[nH]cnc23)cn1 [Example 76, (6-(6-Methoxypyridin-3-Ylamino)-5-(2-Methyl-9H-Purin-6-yl)Pyridin-3-yl)Methanol] | 0.924
5 | COc1cccc(NCc2cnc(Nc3ccc(OC)nc3)c(-c3nc(C)nc4[nH]cnc34)c2)c1 [Example 78, 5-((3-methoxyphenylamino)methyl)-N-(6-methoxypyridin-3-yl)-3-(2-methyl-9H-purin-6-yl)pyridin-2-amine] | > 10
6 | COc1ccc(Nc2ncc(CNc3cccnn3)cc2-c2nc(C)nc3[nH]cnc23)cn1 [Example 80, N-((6-(6-methoxypyridin-3-ylamino)-5-(2-methyl-9H-purin-6-yl)pyridin-3-yl)methyl)pyridazin-3-amine] | > 10
7 | COc1ccc(Nc2ncc(CNc3ccncc3)cc2-c2nc(C)nc3[nH]cnc23)cn1 [Example 81, N-(6-methoxypyridin-3-yl)-3-(2-methyl-9H-purin-6-yl)-5-((pyridin-4-ylamino)methyl)pyridin-2-amine] | > 10
8 | COc1ccc(Nc2ncc(CNc3ccccn3)cc2-c2nc(C)nc3[nH]cnc23)cn1 [Example 82, N-(6-methoxypyridin-3-yl)-3-(2-methyl-9H-purin-6-yl)-5-((pyridin-2-ylamino)methyl)pyridin-2-amine] | > 10
9 | COc1ccc(Nc2ncc(CNc3ccccc3)cc2-c2nc(C)nc3[nH]cnc23)cn1 [Example 83, N-(6-methoxypyridin-3-yl)-3-(2-methyl-9H-purin-6-yl)-5-((phenylamino)methyl)pyridin-2-amine] | > 10
10 | COc1ccc(Nc2ncc(CN3CCNCC3)cc2-c2nc(C)nc3[nH]cnc23)cn1 [Example 84, N-(6-methoxypyridin-3-yl)-3-(2-methyl-9H-purin-6-yl)-5-(piperazin-1-ylmethyl)pyridin-2-amine] | > 10
11 | COc1ccc(Nc2ncc(CN3CCN(S(C)(=O)=O)CC3)cc2-c2nc(C)nc3[nH]cnc23)cn1 [Example 85, N-(6-methoxypyridin-3-yl)-3-(2-methyl-9H-purin-6-yl)-5-((4-(methylsulfonyl)piperazin-1-yl)methyl)pyridin-2-amine] | > 10
12 | COC(=O)N1CCN(Cc2cnc(Nc3ccc(OC)nc3)c(-c3nc(C)nc4[nH]cnc34)c2)CC1 [Example 86, Methyl 4-((6-(6-Methoxypyridin-3-Ylamino)-5-(2-Methyl-9H-Purin-6-yl)Pyridin-3-yl)Methyl)Piperazine-1-Carboxylate] | 0.346
13 | COc1ccc(Nc2ncc(CN3CCN(C(=O)N(C)C)CC3)cc2-c2nc(C)nc3[nH]cnc23)cn1 [Example 87, 4-((6-(6-Methoxypyridin-3-Ylamino)-5-(2-Methyl-9H-Purin-6-yl)Pyridin-3-yl)Methyl)-N,N-Dimethylpiperazine-1-Carboxamide] | 1.87
14 | COc1ccc(Nc2ncc(CN3CCN(S(=O)(=O)N(C)C)CC3)cc2-c2nc(C)nc3[nH]cnc23)cn1 [Example 88, 4-((6-(6-Methoxypyridin-3-Ylamino)-5-(2-Methyl-9H-Purin-6-yl)Pyridin-3-yl)Methyl)-N,N-Dimethylpiperazine-1-Sulfonamide] | > 10
15 | COc1ccc(Nc2ncc(CN3CCN(C(C)=O)CC3)cc2-c2nc(C)nc3[nH]cnc23)cn1 [Example 89, 1-(4-((6-(6-methoxypyridin-3-ylamino)-5-(2-methyl-9H-purin-6-yl)pyridin-3-yl)methyl)piperazin-1-yl)ethanone] | 0.612
16 | COc1ccc(Nc2cnc(Nc3ccc(OC)nc3)c(-c3nc(C)nc4[nH]cnc34)c2)cc1 [Example 90, N5-(4-methoxyphenyl)-N2-(6-methoxypyridin-3-yl)-3-(2-methyl-9H-purin-6-yl)pyridine-2,5-diamine] | 0.743
17 | COc1ccc(Nc2ncc(NCc3ccccc3)cc2-c2nc(C)nc3[nH]cnc23)cn1 [Example 91, N5-benzyl-N2-(6-methoxypyridin-3-yl)-3-(2-methyl-9H-purin-6-yl)pyridine-2,5-diamine] | > 10
18 | COc1ccc(Nc2ncc(Nc3ccccc3)cc2-c2nc(C)nc3[nH]cnc23)cn1 [Example 92, N2-(6-methoxypyridin-3-yl)-3-(2-methyl-9H-purin-6-yl)-N-5-phenylpyridine-2,5-diamine] | 0.714
19 | COCCNc1cnc(Nc2ccc(OC)nc2)c(-c2nc(C)nc3[nH]cnc23)c1 [Example 93, N5-(2-methoxyethyl)-N2-(6-methoxypyridin-3-yl)-3-(2-methyl-9H-purin-6-yl)pyridine-2,5-diamine] | 3.54
20 | CCNc1cnc(Nc2ccc(OC)nc2)c(-c2nc(C)nc3[nH]cnc23)c1 [Example 94, N5-ethyl-N2-(6-methoxypyridin-3-yl)-3-(2-methyl-9H-purin-6-yl)pyridine-2,5-diamine] | 4.14

Row | SMILES | IC50 [µM]
21 | COc1ccc(CNc2cnc(Nc3ccc(OC)nc3)c(-c3nc(C)nc4[nH]cnc34)c2)cc1 [Example 95, N5-(4-methoxybenzyl)-N2-(6-methoxypyridin-3-yl)-3-(2-methyl-9H-purin-6-yl)pyridine-2,5-diamine] | > 10
22 | COc1ccc(Nc2ncc(N3CCOCC3)cc2-c2nc(C)nc3[nH]cnc23)cn1 [Example 97] | > 10
23 | COc1ccc(Nc2ncc(N3CCC(O)C3)cc2-c2nc(C)nc3[nH]cnc23)cn1 (stereo not shown) [Example 98, 1-(6-(6-Methoxypyridin-3-Ylamino)-5-(2-Methyl-9H-Purin-6-yl)Pyridin-3-yl)Pyrrolidin-3-ol] | > 10
24 | COc1ccc(Nc2ncc(N3CCN(S(C)(=O)=O)CC3)cc2-c2nc(C)nc3[nH]cnc23)cn1 [Example 99, N-(6-Methoxypyridin-3-yl)-3-(2-Methyl-9H-Purin-6-yl)-5-(4-(Methylsulfonyl)Piperazin-1-yl)Pyridin-2-Amine] | 0.186
25 | COc1ccc(Nc2ncc(N3CCC[C@H]3CO)cc2-c2nc(C)nc3[nH]cnc23)cn1 [Example 100, ((2S)-1-(6-(6-Methoxypyridin-3-Ylamino)-5-(2-Methyl-9H-Purin-6-yl)Pyridin-3-yl)Pyrrolidin-2-yl)Methanol] | 1.15
26 | COc1ccc(Nc2ncc(N3CCC[C@@H]3CO)cc2-c2nc(C)nc3[nH]cnc23)cn1 [Example 101, ((2R)-1-(6-(6-Methoxypyridin-3-Ylamino)-5-(2-Methyl-9H-Purin-6-yl)Pyridin-3-yl)Pyrrolidin-2-yl)Methanol] | 2.7
27 | CC(=O)Nc1ccc(Nc2ncccc2-c2nc(C)nc3[nH]cnc23)cc1 [Example 102, N-(4-(3-(2-methyl-9H-purin-6-yl)pyridin-2-ylamino)phenyl)acetamide] | 0.035
28 | COc1ccc(Nc2ncc(Cc3ccc(S(C)(=O)=O)cc3)cc2-c2nc(C)nc3[nH]cnc23)cn1 [Example 103, N-(6-methoxypyridin-3-yl)-3-(2-methyl-9H-purin-6-yl)-5-(4-(methylsulfonyl)benzyl)pyridin-2-amine] | 0.245
29 | Cc1nc(-c2cc(Cc3ccc(S(C)(=O)=O)cc3)cnc2Nc2cccc3[nH]ncc23)c2nc[nH]c2n1 [Example 104, N-(3-(2-methyl-9H-purin-6-yl)-5-(4-(methylsulfonyl)benzyl)pyridin-2-yl)-1H-indazol-4-amine] | > 10
30 | CC(=O)Nc1ccc(Nc2ncc(Cc3ccc(S(C)(=O)=O)cc3)cc2-c2nc(C)nc3[nH]cnc23)cn1 [Example 105, N-(5-(3-(2-methyl-9H-purin-6-yl)-5-(4-(methylsulfonyl)benzyl)pyridin-2-ylamino)pyridin-2-yl)acetamide] | 0.27
31 | Cc1nc(-c2cc(Cc3ccc(S(C)(=O)=O)cc3)cnc2Nc2ccc(N)nc2)c2nc[nH]c2n1 [Example 106, N5-(3-(2-methyl-9H-purin-6-yl)-5-(4-(methylsulfonyl)benzyl)pyridin-2-yl)pyridine-2,5-diamine] | 0.084
32 | Cc1nc(N)cc(-c2cnccc2Nc2cccc3[nH]ncc23)n1 [Example 107, N-(3-(6-amino-2-methylpyrimidin-4-yl)pyridin-4-yl)-1H-indazol-4-amine] | > 50
33 | CC(=O)Nc1cc(-c2cnccc2Nc2cccc3[nH]ccc23)nc(C)n1 [Example 108, N-(6-(4-(1H-indol-4-ylamino)pyridin-3-yl)-2-methylpyrimidin-4-yl)acetamide] | > 50
34 | Cc1nc(N)cc(-c2cnccc2Nc2cccc3[nH]ccc23)n1 [Example 109, N-(3-(6-amino-2-methylpyrimidin-4-yl)pyridin-4-yl)-1H-indol-4-amine] | > 50
35 | Cc1nc(-c2cnccc2Nc2cccc3[nH]ncc23)c2nc[nH]c2n1 [Example 110, N-(3-(2-methyl-9H-purin-6-yl)pyridin-4-yl)-1H-indazol-4-amine] | > 10
36 | COc1ccc(Nc2ccncc2-c2nc(C)nc3[nH]cnc23)cn1 [Example 111, 6-methoxy-N-(3-(2-methyl-9H-purin-6-yl)pyridin-4-yl)pyridin-3-amine] | > 10
37 | Cc1nc(N)cc(-c2nccnc2Nc2cccc3[nH]ncc23)n1 [Example 112, N-(3-(6-amino-2-methylpyrimidin-4-yl)pyrazin-2-yl)-1H-indazol-4-amine] | > 10
38 | COc1ccc(Nc2nc3ccccc3cc2-c2nc(C)nc3[nH]cnc23)cn1 [Example 113, N-(6-Methoxypyridin-3-yl)-3-(2-Methyl-9H-Purin-6-yl)Quinolin-2-Amine] | > 10
39 | COc1ccc(Nc2nccnc2-c2nc(C)nc(N)n2)cn1 [Example 114, 4-(3-(6-methoxypyridin-3-ylamino)pyrazin-2-yl)-6-methyl-1,3,5-triazin-2-amine] | > 10
40 | COc1ccc(Nc2cnccc2-c2nc(C)nc(N)n2)cn1 [Example 115, 4-(3-(6-methoxypyridin-3-ylamino)pyridin-4-yl)-6-methyl-1,3,5-triazin-2-amine] | > 10
